For assay [1], the target named is human EGFR E746-A750 deletion and T790M Mutation (Homo sapiens, UniProt P00533, DEL746-750/T790M). In words: Ba/F3-EGFR-Del/T790M cell anti-proliferative assay (CellTiter 96 MTS, 72 h). The assay is classed as cell-based. The settings on record: read-out: EGFR exon 19 deletion and exon 20 T790M mutation IC50, Ba/F3-EGFR-Del/T790M cells.
The target in assay [2] is Her2 exon 20 YVMA insertion (A775_G776ins YVMA) (Homo sapiens, UniProt P04626, INS775YVMA). Put plainly: Ba/F3-Her2 Exon20 YVMA cell anti-proliferative assay (CellTiter 96 MTS, 72 h). The settings on record: read-out: HER2 exon 20 YVMA insertion IC50, Ba/F3-Her2 Exon20 YVMA cells.
Assay [3] addresses human EGFR exon 20 insertion ASV (V769_D770insASV) (Homo sapiens, UniProt P00533, INS769ASV). In words: Ba/F3-EGFR-Exon20-ASV cell anti-proliferative assay (CellTiter 96 MTS, 72 h). The assay is classed as cell-based. To be noted: read-out: EGFR exon 20 ASV insertion IC50, Ba/F3-EGFR-Exon20-ASV cells.
For assay [4], the target named is human EGFR exon 20 insertion NPG (H773_V774insNPG) (Homo sapiens, UniProt P00533, INS772GNP). In words: Ba/F3-EGFR-Exon20-NPG cell anti-proliferative assay (CellTiter 96 MTS, 72 h). The assay is classed as cell-based. The settings on record: read-out: EGFR exon 20 NPG insertion IC50, Ba/F3-EGFR-Exon20-NPG cells.

Protein sequences, listed by entry. Tags and fused reporters are not part of them. Chains listed by the source or under a name are the forms on record and can include a tag or linker.
UniProt P00533, with tags, fused parts or gaps INS769ASV limits assumed: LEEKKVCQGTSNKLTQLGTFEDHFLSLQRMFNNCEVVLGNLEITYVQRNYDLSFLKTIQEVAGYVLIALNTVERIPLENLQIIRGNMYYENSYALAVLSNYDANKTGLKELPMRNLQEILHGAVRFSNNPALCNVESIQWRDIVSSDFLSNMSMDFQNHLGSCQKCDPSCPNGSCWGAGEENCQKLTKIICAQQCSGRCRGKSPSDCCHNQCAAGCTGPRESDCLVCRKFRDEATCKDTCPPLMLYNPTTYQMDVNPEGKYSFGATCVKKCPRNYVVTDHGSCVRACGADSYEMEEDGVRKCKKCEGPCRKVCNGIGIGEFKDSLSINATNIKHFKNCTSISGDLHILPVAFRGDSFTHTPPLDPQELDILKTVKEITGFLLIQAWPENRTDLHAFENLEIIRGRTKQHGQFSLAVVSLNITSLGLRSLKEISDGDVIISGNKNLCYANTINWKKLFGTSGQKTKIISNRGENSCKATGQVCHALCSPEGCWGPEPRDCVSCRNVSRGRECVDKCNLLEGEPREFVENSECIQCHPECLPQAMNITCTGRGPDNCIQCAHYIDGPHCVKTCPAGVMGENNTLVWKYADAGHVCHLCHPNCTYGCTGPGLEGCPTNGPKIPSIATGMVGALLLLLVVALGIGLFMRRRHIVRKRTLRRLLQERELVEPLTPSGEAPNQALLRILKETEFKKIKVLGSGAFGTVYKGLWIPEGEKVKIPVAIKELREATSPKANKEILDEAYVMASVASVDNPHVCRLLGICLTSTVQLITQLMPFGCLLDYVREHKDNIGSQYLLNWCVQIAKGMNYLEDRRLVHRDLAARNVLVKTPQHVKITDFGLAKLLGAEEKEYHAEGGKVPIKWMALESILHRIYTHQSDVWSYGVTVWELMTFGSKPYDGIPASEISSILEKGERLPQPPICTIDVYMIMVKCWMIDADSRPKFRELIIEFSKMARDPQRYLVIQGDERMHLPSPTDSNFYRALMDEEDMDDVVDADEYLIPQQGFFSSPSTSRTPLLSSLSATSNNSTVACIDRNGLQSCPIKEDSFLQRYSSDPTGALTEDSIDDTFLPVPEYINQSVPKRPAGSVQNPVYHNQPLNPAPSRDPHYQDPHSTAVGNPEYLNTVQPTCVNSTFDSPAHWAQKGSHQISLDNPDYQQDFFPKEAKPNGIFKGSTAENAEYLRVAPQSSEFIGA
UniProt P00533, with tags, fused parts or gaps INS772GNP limits assumed: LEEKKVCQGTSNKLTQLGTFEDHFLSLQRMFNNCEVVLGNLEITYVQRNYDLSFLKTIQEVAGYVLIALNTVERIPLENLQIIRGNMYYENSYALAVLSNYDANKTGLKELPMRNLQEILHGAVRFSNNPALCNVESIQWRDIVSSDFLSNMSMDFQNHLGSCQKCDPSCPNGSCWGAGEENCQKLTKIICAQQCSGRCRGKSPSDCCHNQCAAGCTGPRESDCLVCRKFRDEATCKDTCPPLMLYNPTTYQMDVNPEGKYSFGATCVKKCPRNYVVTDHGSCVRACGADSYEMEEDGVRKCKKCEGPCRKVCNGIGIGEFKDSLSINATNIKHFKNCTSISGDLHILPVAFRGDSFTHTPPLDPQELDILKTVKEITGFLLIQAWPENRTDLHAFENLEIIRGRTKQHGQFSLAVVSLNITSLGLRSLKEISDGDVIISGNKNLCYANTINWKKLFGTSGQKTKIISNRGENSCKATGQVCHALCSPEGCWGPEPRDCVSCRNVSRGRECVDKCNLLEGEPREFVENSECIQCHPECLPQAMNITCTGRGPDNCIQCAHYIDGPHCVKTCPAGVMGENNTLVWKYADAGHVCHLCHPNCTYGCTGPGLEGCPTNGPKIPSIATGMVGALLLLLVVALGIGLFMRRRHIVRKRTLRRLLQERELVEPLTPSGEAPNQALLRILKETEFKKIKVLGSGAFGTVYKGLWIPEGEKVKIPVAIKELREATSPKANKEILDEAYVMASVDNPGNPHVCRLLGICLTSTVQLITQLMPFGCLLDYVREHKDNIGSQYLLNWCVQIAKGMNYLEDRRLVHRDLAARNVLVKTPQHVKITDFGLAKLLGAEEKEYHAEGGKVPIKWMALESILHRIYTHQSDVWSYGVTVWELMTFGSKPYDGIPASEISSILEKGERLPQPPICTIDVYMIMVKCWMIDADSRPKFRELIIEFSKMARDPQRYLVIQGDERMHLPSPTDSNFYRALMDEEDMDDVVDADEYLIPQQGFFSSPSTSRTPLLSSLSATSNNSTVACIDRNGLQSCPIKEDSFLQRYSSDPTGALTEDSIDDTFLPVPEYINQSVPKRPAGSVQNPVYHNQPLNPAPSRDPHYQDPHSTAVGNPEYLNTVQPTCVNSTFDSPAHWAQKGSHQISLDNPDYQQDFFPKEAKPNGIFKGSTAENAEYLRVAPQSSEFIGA
UniProt P00533, with tags, fused parts or gaps DEL746-750/T790M limits assumed: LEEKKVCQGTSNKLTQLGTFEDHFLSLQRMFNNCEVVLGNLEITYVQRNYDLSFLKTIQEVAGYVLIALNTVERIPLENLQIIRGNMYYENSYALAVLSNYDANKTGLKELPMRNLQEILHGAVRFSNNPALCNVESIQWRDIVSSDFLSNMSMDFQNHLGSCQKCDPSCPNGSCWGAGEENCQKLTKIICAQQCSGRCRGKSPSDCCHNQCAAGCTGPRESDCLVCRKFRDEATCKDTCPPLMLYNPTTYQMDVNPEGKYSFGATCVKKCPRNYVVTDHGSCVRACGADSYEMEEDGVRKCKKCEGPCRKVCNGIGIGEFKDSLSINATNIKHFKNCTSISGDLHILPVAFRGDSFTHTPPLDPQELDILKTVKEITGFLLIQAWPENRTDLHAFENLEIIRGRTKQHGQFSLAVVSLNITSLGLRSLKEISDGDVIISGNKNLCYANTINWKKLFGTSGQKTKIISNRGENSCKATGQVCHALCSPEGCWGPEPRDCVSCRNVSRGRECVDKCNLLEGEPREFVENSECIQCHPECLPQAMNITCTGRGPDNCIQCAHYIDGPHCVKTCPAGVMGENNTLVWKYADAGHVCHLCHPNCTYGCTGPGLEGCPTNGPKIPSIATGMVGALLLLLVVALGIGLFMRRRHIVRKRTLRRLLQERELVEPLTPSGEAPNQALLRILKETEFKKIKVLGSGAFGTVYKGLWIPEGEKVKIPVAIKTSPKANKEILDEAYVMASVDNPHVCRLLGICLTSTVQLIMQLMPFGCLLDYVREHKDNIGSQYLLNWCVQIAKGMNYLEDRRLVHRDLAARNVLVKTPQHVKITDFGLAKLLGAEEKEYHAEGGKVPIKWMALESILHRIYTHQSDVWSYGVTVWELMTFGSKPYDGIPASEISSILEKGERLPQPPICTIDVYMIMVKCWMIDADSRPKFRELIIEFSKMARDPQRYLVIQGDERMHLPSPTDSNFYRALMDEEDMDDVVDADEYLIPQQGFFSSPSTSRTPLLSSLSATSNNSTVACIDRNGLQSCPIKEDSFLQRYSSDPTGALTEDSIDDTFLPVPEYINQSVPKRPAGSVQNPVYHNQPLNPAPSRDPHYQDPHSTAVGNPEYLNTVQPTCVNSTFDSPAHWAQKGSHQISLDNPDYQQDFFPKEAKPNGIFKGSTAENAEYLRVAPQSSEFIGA
UniProt P04626, with tags, fused parts or gaps INS775YVMA limits assumed: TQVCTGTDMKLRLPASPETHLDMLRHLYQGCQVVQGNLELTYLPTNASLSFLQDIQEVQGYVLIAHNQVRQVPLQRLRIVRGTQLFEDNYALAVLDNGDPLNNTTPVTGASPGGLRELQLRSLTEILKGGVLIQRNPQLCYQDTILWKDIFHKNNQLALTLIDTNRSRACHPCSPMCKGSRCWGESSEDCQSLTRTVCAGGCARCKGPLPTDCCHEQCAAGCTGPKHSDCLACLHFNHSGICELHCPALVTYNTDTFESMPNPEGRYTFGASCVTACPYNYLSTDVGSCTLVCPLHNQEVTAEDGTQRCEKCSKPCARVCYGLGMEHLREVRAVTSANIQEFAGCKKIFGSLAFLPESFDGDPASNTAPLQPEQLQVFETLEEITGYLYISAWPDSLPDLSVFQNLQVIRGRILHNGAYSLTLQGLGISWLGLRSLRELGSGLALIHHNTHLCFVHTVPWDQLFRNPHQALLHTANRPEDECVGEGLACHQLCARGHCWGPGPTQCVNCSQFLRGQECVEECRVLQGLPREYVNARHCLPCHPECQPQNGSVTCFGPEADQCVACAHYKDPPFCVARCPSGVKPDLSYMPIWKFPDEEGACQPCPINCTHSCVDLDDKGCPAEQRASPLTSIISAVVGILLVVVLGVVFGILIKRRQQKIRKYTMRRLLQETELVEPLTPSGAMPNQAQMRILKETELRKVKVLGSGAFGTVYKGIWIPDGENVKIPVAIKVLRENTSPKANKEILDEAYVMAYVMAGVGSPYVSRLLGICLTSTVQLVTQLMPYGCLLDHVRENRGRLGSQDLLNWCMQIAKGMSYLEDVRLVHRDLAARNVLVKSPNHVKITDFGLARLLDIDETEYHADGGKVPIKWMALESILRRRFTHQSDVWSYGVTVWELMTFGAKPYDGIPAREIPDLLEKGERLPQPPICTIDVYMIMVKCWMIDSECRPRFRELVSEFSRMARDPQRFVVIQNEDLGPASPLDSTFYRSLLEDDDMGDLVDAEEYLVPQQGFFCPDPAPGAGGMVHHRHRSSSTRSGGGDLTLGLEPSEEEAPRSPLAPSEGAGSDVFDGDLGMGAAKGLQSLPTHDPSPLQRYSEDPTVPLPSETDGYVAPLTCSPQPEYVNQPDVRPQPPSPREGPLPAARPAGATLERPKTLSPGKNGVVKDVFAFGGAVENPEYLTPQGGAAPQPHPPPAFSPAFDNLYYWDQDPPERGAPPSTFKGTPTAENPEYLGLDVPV

Structures are written as SMILES.

We go through two molecules from patent US20170166598A1, “HETEROARYL COMPOUNDS FOR KINASE INHIBITION” (ARIAD PHARMACEUTICALS, INC., priority 2014, published 2017).

`C=CC(=O)Nc1cc(Nc2ncc(-c3cnn(C(C)C)c3)c(-c3cn4c5c(cccc35)CCC4)n2)c(OC)cc1N(C)CCN(C)C`: the IC50 in assay [1], in assay [2], in assay [3] and in assay [4] was < 100 nM throughout.
As for `C=CC(=O)Nc1cc(Nc2ncc(CCCCO)c(-c3cn4c5c(cccc35)CCC4)n2)c(OC)cc1N(C)CCN(C)C`, the IC50 in assay [1] is < 100 nM; in assay [2], 100 to 500 nM; in assay [3], < 100 nM; in assay [4], < 100 nM.
